In the NIST ThermoML archive (doi:10.1016/j.jct.2015.02.007):

Conditions: 100 kPa, Liquid; for mass density: Vibrating tube method; for speed of sound: Pulse-echo method

OCCOCCOCCOCCO [tetraethylene glycol]
Conditions | mass density [kg/m3] | speed of sound [m/s]
278.15 K | 1135.81 | –
283.15 K | 1131.85 | –
288.15 K | 1127.88 | 1633.1
293.15 K | 1123.9 | 1615.3
298.15 K | 1119.92 | 1599.1
303.15 K | 1115.94 | 1582.9
308.15 K | 1111.96 | 1568.7
313.15 K | 1107.98 | 1553.5
318.15 K | 1104.01 | 1538.5
323.15 K | 1100.02 | –
328.15 K | 1096.04 | –
333.15 K | 1092.05 | –
